Experimental data as given in paper PMC12284618, “Design of Potent Mannose‐6‐Phosphate Derivatives as Ligands for CI‐M6P/IGF2R Using Fluorescence Polarization Assay” (Chemistry (Weinheim an Der Bergstrasse, Germany), 2025).

Target: T1, CI‐M6P/IGF2R:D1–D15 (Homo sapiens, UniProt P11717)
T1 construct: domains 1–15 (residues AA 41–2304); gp67 signal peptide (X1) (N, cleaved yes); 6‐His‐tag (C); PreScission protease cutting site (C); TwinStrep‐tag (C); made in house; host or cells: Spodoptera frugiperda Sf9 insect cells (baculovirus, pFastBac-1), secreted into the medium
Assay: Competitive fluorescence polarization assay (displacement of fluorescent glycopeptide 1)
Assay type: binding
From the text: The gene encoding human CI‐M6P/IGF2R domains 1–15 (residues AA 41–2304) fused to an N‐terminal gp67 signal peptide ([…]) and C‐terminal 6‐His‐tag, PreScission protease cutting site, and TwinStrep‐tag in pFastBac‐1 vector was used for bacmid generation in DH10Bac E. coli (Thermo Fisher Scientific). The recombinant bacmid DNA was purified using alkaline extraction and transfected using ExpiFectamine‐Sf (Thermo Fisher Scientific) into Spodoptera frugiperda 9 (Sf9) cells. […] Expression of the recombinant protein was assessed by SDS‐PAGE and Western Blot analysis. […]
We employed a fluorescence polarization (FP) binding assay to assess the binding affinity of the tested compounds for a soluble CI‐M6P/IGF2R ectodomain construct. […] Upon binding to the CI‐M6P/IGF2R protein, the probe's rotation slows, resulting in increased fluorescence polarization. This shift is quantified as anisotropy (or polarization), which reflects the ratio of bound to free probe, enabling binding affinity estimation without phase separation.^[ [26] ^]
In all experiments, the compounds were dissolved in water and serially diluted with water in Echo Qualified 384‐Well PP Source Microplates using a BRAVO pipetting station (Agilent, USA). […] After 30 minutes, fluorescence polarization was measured using a Tecan Spark plate reader (Tecan, Switzerland) with excitation at 485 nm and emission at 535 nm. […]

In the case of “mannose‐6‐phosphate [Compound 7, reference compound]”, the “Potency (relative binding potency)” value ((IC50 of compound 2 / IC50 of compound) × 100) is reported as 3.6% and the IC50 (receptor 300 nM, glycopeptide 1 10 nM, pH 8.0, mean of two independent measurements in triplicate ± S.D.) is reported as 13.1 ± 2.8 µM.
